What was measured:
[1] = biological target: human P2Y1R Construct 1+Y303^7.32F mutation (Homo sapiens, UniProt P47900, D320N/INS247MKKYTCTVCGYIYNPEDG/INS251GVNPGTDFKDIPDDWVCPLCGVGKDQFEEVE/L249P/S252E/Y303F); assay: biochemical
[2] = biological target: human P2Y1R Construct 2+A106^2.59F mutation (Homo sapiens, UniProt P47900, A106F/D320N/INS247MKKYTCTVCGYIYNPEDG/INS251GVNPGTDFKDIPDDWVCPLCGVGKDQFEEVE/L249P/S252E); assay: biochemical
[3] = biological target: human P2Y1R Construct 1+Y306^7.35F mutation (Homo sapiens, UniProt P47900, D320N/INS247MKKYTCTVCGYIYNPEDG/INS251GVNPGTDFKDIPDDWVCPLCGVGKDQFEEVE/L249P/S252E/Y306F); assay: biochemical
[4] = biological target: human P2Y1R Construct 2+A106^2.59L mutation (Homo sapiens, UniProt P47900, A106L/D320N/INS247MKKYTCTVCGYIYNPEDG/INS251GVNPGTDFKDIPDDWVCPLCGVGKDQFEEVE/L249P/S252E); assay: biochemical
[5] = biological target: human P2Y1R WT+A106^2.59W mutation (Homo sapiens, UniProt P47900, A106W); assay: Saturation binding of [3H]2MeSADP, COS-7 membranes
[6] = biological target: human P2Y1R Construct 1 (Homo sapiens, UniProt P47900, D320N/INS247MKKYTCTVCGYIYNPEDG/INS251GVNPGTDFKDIPDDWVCPLCGVGKDQFEEVE/L249P/S252E); assay: Saturation binding of [3H]2MeSADP, Sf9 membranes
[7] = biological target: human P2Y1R Construct 1+R195A mutation (Homo sapiens, UniProt P47900, D320N/INS247MKKYTCTVCGYIYNPEDG/INS251GVNPGTDFKDIPDDWVCPLCGVGKDQFEEVE/L249P/R195A/S252E); assay: biochemical
[8] = biological target: T1, human P2Y1R WT (Homo sapiens, UniProt P47900); assay: Saturation binding of [3H]2MeSADP, Sf9 membranes
[9] = biological target: human P2Y1R Construct 2+T103^2.56W mutation (Homo sapiens, UniProt P47900, D320N/INS247MKKYTCTVCGYIYNPEDG/INS251GVNPGTDFKDIPDDWVCPLCGVGKDQFEEVE/L249P/S252E/T103W); assay: biochemical
[10] = biological target: human P2Y1R Construct 2+A106^2.59W mutation (Homo sapiens, UniProt P47900, A106W/D320N/INS247MKKYTCTVCGYIYNPEDG/INS251GVNPGTDFKDIPDDWVCPLCGVGKDQFEEVE/L249P/S252E); assay: biochemical
[11] = biological target: human P2Y1R Construct 2 (UniProt P0ABE7+P47900, D320N/H124I/INS247MKKYTCTVCGYIYNPEDG/INS251GVNPGTDFKDIPDDWVCPLCGVGKDQFEEVE/L249P/M29W/S252E); assay: Saturation binding of [3H]2MeSADP, Sf9 membranes
[12] = biological target: human P2Y1R WT+Y303^7.32F mutation (Homo sapiens, UniProt P47900, Y303F); assay: Saturation binding of [3H]2MeSADP, COS-7 membranes
[13] = biological target: human P2Y1R Construct 1+K46A mutation (Homo sapiens, UniProt P47900, D320N/INS247MKKYTCTVCGYIYNPEDG/INS251GVNPGTDFKDIPDDWVCPLCGVGKDQFEEVE/K46A/L249P/S252E); assay: biochemical
[14] = biological target: human P2Y1R Construct 1+A286^6.61W mutation (Homo sapiens, UniProt P47900, A286W/D320N/INS247MKKYTCTVCGYIYNPEDG/INS251GVNPGTDFKDIPDDWVCPLCGVGKDQFEEVE/L249P/S252E); assay: biochemical
[15] = biological target: T1, human P2Y1R WT; assay: Saturation binding of [3H]2MeSADP, COS-7 membranes

Protein sequences, listed by entry. Tags and fused reporters are not part of them. Lines headed by an entry give the natural chain unless they say otherwise; changes in a name come on top.
UniProt P47900, whole entry A106W: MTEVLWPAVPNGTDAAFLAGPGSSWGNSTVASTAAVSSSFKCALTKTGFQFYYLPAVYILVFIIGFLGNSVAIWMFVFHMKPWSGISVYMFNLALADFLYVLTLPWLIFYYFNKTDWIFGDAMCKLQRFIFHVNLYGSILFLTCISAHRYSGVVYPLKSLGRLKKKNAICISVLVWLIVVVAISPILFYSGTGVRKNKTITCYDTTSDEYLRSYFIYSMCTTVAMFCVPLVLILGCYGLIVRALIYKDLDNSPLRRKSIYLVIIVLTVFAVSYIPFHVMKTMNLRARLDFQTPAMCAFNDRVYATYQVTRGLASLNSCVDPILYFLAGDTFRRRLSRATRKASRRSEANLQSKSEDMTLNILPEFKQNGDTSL
UniProt P47900, whole entry Y303F: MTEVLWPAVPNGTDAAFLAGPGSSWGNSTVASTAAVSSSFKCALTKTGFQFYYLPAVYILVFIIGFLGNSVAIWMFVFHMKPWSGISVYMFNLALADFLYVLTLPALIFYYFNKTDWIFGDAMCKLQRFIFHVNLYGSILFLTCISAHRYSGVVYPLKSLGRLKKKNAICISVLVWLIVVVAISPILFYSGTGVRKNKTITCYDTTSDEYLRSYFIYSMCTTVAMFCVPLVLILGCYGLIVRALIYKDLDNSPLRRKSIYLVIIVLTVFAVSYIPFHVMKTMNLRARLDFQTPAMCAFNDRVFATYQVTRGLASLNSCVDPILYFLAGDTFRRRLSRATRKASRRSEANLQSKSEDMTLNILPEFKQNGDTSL

CSc1nc(N)c2ncn([C@@H]3O[C@H](COP(=O)(O)OP(=O)(O)O)[C@@H](O)[C@H]3O)c2n1 [2MeSADP, 2-methylthio-adenosine 5′-diphosphate]
Kd [1]: 41.9 ± 11 nM | Kd [2]: 57.4 ± 21.8 nM | Kd [3]: > 300 nM | Kd [4]: 41.9 ± 4.1 nM | Kd [5]: 1.96 ± 0.11 nM | Kd [6]: 33.7 ± 12.2 nM | Kd [7]: 59.8 ± 11.6 nM | Kd [8]: 53.6 ± 6.1 nM | Kd [9]: 45 ± 11.6 nM | Kd [10]: 23.4 ± 5.8 nM | Kd [11]: 36.7 ± 7.6 nM | Kd [12]: 1.78 ± 0.16 nM | Kd [13]: 68.3 ± 10 nM | Kd [14]: 47.4 ± 10.5 nM | Kd [15]: 1.88 ± 0.59 nM

Source: PMC4408927 (Nature, 2015)
